Test results reported in US8927023B2, “Biocompatible, non-biodegradable, non-toxic polymer useful for nanoparticle pharmaceutical compositions” (Fresenius Kabi Oncology Limited, priority 2005, dated 2015).

Assay: Average particle size of the nanoparticles in the pharmaceutical composition
Format: physicochemical
From the text: This could be exemplified with respect to pharmaceutical compositions of two poorly water-soluble anticancer drugs or compounds, viz.

Average Particle Size (nm) (1 ml ethanol solution into ≈35 ml, needle 0.305 mm, addition 6 Secs): 240 nm
Average Particle Size (nm) (1 ml ethanol solution into ≈35 ml, needle 0.467 mm, addition 2 Secs): 90 nm
Average Particle Size (nm) (1 ml ethanol solution into ≈35 ml, needle 0.467 mm, addition 6 Secs): 280 nm
Average Particle Size (nm) (1 ml ethanol solution into ≈35 ml, needle 0.711 mm, addition 2 Secs): 135 nm
Average Particle Size (nm) (1 ml ethanol solution into ≈35 ml, needle 0.711 mm, addition 6 Secs): 285 nm
Average Particle Size (nm) (1 ml ethanol solution into ≈35 ml, needle 1.270 mm, addition 2 Secs): 270 nm
Average Particle Size (nm) (1 ml ethanol solution into ≈35 ml, needle 1.270 mm, addition 6 Secs): 2300 nm
Average Particle Size (nm) (15 ml ethanol solution into ≈500 ml, needle 0.330 mm, addition 18 Secs): 50 nm
Average Particle Size (nm) (15 ml ethanol solution into ≈500 ml, needle 0.711 mm, addition 10 Secs): 85 nm
Average Particle Size (nm) (15 ml ethanol solution into ≈500 ml, needle 0.711 mm, addition 15 Secs): 150 nm
Average Particle Size (nm) (nanoparticles with the polymer, 1 ml ethanol solution into ≈35 ml, needle 0.305 mm, addition 3 Secs): 80 nm
SMILES: CC(=O)O[C@H]1C(=O)[C@@]2(C)[C@H]([C@H](OC(=O)c3ccccc3)[C@]3(O)C[C@H](OC(=O)[C@H](O)[C@@H](NC(=O)c4ccccc4)c4ccccc4)C(C)=C1C3(C)C)[C@]1(OC(C)=O)CO[C@@H]1C[C@@H]2O [Paclitaxel]
